As usually defined, the Emax is the maximal effect, on the per cent scale that the assay sets.

Sequences of proteins named here, by UniProt entry; tags and fusion partners are left off. Residues count along the entry.
UniProt P36544, 23-502: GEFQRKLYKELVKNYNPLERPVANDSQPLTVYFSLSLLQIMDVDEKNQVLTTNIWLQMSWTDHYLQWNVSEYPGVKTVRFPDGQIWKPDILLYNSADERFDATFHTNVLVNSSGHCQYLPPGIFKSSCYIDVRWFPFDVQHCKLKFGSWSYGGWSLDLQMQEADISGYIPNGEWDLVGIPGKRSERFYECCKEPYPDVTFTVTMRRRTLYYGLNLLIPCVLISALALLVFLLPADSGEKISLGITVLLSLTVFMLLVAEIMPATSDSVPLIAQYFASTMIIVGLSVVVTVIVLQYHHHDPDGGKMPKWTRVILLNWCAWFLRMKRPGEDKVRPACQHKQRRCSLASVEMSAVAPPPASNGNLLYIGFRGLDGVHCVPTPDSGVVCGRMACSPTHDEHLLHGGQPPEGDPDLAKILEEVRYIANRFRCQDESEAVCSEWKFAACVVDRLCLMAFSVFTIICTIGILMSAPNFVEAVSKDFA

The target of this assay is α7 nAChRs (Homo sapiens, UniProt P36544). Nature of the assay: cell-based. To be noted: for Emax: read-out: Agonist Effect Emax.

Take `CN1CCC[C@H]1c1cccnc1` [Synthetic S nicotine, S nicotine]: the “Agonist Effect Hillslope” value is given as −3.36, the “Antagonist Effect Hillslope” value came to 5.83 and the Emax is 102%.
With `CN1CCCC1c1cccnc1` (racemic) [Synthetic RS racemic nicotine, RS-Nicotine], the “Agonist Effect Hillslope” value is −1.97, the “Antagonist Effect Hillslope” value came to 3.38 and the Emax was 108%.
On to `CN1CCC[C@@H]1c1cccnc1` [Synthetic R nicotine, R nicotine], for which the Emax was determined as 110%.

(Values after US10610526B2 (priority 2015, dated 2020).)
